What is called IC50 is the concentration that gives 50% inhibition.

Counter-ions that a name gives are not always drawn.

This assay concerns the target T1, human glycine transporter type 1 (Gly-T1) (Homo sapiens, UniProt P48067).
T1 construct: JAR) cells endogenously expressing human glycine transporter type 1 (Gly-T1); endogenous in cells; host or cells: JAR (human placental choriocarcinoma) cells
T1 sequence (P48067 1-706): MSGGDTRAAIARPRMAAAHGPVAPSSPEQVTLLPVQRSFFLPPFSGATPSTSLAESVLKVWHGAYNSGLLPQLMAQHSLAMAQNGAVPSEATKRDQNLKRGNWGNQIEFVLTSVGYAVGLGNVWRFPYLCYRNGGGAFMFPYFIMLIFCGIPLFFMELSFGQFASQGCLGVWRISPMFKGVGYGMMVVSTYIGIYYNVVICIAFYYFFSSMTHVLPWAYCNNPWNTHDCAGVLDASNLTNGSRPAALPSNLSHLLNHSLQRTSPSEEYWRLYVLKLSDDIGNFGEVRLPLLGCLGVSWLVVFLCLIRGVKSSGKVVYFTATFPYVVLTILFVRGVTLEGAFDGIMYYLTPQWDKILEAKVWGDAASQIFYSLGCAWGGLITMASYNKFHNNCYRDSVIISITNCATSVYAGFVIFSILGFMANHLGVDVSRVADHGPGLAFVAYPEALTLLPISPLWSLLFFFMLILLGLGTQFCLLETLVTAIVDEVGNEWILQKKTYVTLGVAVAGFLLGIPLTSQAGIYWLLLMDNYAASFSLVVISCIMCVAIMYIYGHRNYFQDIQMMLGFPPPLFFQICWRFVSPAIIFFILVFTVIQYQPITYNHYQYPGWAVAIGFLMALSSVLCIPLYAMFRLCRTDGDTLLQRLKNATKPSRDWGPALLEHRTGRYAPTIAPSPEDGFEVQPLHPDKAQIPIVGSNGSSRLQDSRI
Kind of assay: Glycine Transporter 1 (GlyT1) uptake assay, [14C] glycine uptake in JAR cells. The class given is cell-based. The note with it: approximate IC50; inhibition of [14C] glycine (5 μM) uptake, JAR cells endogenously expressing human Gly-T1. As to the method:
This cell-based assay measures the ability of test compounds to inhibit the uptake of glycine by the glycine transporter type 1. Human placental choriocarcinoma (JAR) cells endogenously expressing human glycine transporter type 1 (Gly-T1) were used for this assay. […] Cells were plated at a density of 4×10^4 cells/well and grown at 37° C. in a humidified atmosphere of 5% CO2 for 24 h.
Culture medium was removed from Cytostar plate and JAR cells were incubated with 30 μl of Uptake buffer (120 mM NaCl, 2 mM KCl, 1 mM CaCl2, 1 mM MgCl2, 10 mM Hepes, 5 mM alanine, pH 7.5) with or without compound for 5 min. […] After incubation at room temperature for the desired time usually 1-2 h, sealed 96-well Cytostar plates were counted on a TopCount (Packard).
IC50 curves were generated from the raw data collected from the TopCount and fitted with a four-parameter logistic equation using in-house data analysis tool, Activity Base.

`O=C(O)CN1CCN(C(c2ccc(Cl)cc2)c2ccc(Cl)cc2)CC1` [Cpd 88, 2-(4-(bis(4-chlorophenyl)methyl)piperazin-1-yl)acetic acid dihydrochloride salt]: the midpoint of inhibition, the IC50, lay at 134 nM.

Values taken from US9663476B2, “Glycine transporter-1 inhibitors” (AMGEN INC., priority 2006, dated 2017).
